# scFv variants of Ab-14 (light chain) against a SARS-CoV-2 spike peptide

Data: MIT Lincoln Laboratory AlphaSeq set, Li et al. 2023, doi:10.1038/s41467-023-39022-2, as distributed in FLAb.

Binding partner: SARS-CoV-2 spike HR2 peptide, sequence PDVDLGDISGINAS.

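Phage display of a naive human antibody library on the peptide gave the parent. These sequences belong to a second round, designed from the earlier measurements on random variants of the parent. Group labels follow the data file (Ctrl: baseline library sampled from a position-specific scoring matrix, with some repeated check sequences; En: ensemble of fine-tuned language models; GP: Gaussian process model; HC: hill climbing; Gen: genetic algorithm; Gibbs: Gibbs sampling; a sequence that several methods proposed may carry one label only). In AlphaSeq, yeast of one mating type display the scFv and yeast of the other type display the target. Pairs that bind mate more often; barcode pairs of the diploids are counted by sequencing. Read counts were normalised to the haploid input and turned into Kd by a linear fit to BCL2-family pairs of known affinity, for each replicate. Each pool was mated in six replicate cultures.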

Ab-14 is the parent antibody, in scFv form: VH, then the linker GGGGSGGGGSGGGGS, then VL. The heavy chain is unchanged in all variants.
VH: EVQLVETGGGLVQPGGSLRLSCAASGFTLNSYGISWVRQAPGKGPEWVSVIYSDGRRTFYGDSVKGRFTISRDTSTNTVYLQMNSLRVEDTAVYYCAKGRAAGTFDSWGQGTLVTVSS
VL: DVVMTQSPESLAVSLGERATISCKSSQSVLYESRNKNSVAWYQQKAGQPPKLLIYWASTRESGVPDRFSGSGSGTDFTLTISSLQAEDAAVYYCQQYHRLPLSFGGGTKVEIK

Sequences are complete VL domains. Kd is apparent (estimated from mating counts) and averaged on the log scale over replicates with a signal. Smaller is tighter. "not detected" means that the variant was in the library but no mating with the target was seen in any replicate; the authors take this as a sign of poor binding, and no number exists. Three control strains display no target. For all light chain designs, 4% of the pairings with them gave a signal, with a median of 430 nM and one signal in twenty below 38 nM, so weak values seen in few replicates may be background. In the paper, a design with two or fewer of six values counts as a poor binder. The parent sequence was in this pool as ten entries: three were never detected, three once, and four in most replicates, with averages from 2.2 nM to 240 nM. The range of this assay differs from that of the first round, and the authors advise against merging the two.

{"VL": "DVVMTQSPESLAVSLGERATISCGIFSQMDGPTEEKENVAWYQQKAGQPPKLLIYNGNERLPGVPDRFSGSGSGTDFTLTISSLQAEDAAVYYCQQYQRLPLTFGGGTKVEIK", "group": "En_Gibbs", "Kd": "2.0 nM", "detected": "6/6"}
{"VL": "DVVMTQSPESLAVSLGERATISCKVSPSELYESRNKNSVAWYQQKAGQPPKLLIYNASTRESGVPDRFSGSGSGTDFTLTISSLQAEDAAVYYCQQYHRLPLSFGGGTKVEIK", "group": "GP_Gen", "Kd": "8.2 nM", "detected": "6/6"}
{"VL": "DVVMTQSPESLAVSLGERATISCKISQMVNFESTHIQAVAWYQQKAGQPPKLLIYQMSTREEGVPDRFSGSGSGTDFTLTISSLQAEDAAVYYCQQYFRLPLSFGGGTKVEIK", "group": "En_HC", "Kd": "4.2 nM", "detected": "6/6"}
{"VL": "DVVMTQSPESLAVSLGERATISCKLSISHQVESINKSNVAWYQQKAGQPPKLLIYEMVTRENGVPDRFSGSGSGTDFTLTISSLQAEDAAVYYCQQYDRLPLSFGGGTKVEIK", "group": "En_HC", "Kd": "120 nM", "detected": "6/6"}
{"VL": "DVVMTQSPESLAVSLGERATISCKLQQSVGYESRNQNAVAWYQQKAGQPPKLLIYEASQREEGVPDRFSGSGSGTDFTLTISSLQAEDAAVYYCQQYHRLPLSFGGGTKVEIK", "group": "GP_Gibbs", "Kd": "950 pM", "detected": "6/6"}
{"VL": "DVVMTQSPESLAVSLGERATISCIVSQLMLWGYHAKNSIAWYQQKAGQPPKLLIYEAETRLNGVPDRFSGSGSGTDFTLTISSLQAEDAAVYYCQQYERLPLFFGGGTKVEIK", "group": "En_Gen", "Kd": "not detected", "detected": "0/6"}
{"VL": "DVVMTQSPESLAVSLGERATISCKISQSVLYESRNCNSVAWYQQKAGQPPKLLIYWASTRESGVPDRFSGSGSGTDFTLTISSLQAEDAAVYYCQQYHRLPLSFGGGTKVEIK", "group": "Ctrl", "Kd": "18 nM", "detected": "6/6"}
{"VL": "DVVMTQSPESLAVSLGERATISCKLSQSMEYQSRNKNNVAWYQQKAGQPPKLLIYNASQREQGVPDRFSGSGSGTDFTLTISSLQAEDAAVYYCQSYHRLPLSFGGGTKVEIK", "group": "GP_Gibbs", "Kd": "14 nM", "detected": "6/6"}
{"VL": "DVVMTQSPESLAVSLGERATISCKLSMSVRMESFVKDNVAWYQQKAGQPPKLLIYENSTREEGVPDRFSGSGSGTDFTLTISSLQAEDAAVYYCQDYHRLPLSFGGGTKVEIK", "group": "En_HC", "Kd": "2.4 µM", "detected": "1/6"}
{"VL": "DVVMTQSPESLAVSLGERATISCKLSQSQEYESRNSNSVAWYQQKAGQPPKLLIYNASTRETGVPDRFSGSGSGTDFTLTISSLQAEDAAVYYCQQYHRLPLEFGGGTKVEIK", "group": "GP_Gibbs", "Kd": "21 nM", "detected": "6/6"}
{"VL": "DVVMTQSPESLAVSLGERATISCKLSMTHQMESVNRNSVAWYQQKAGQPPKLLIYELVTRMKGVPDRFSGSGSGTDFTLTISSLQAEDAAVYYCQQYNRLPLSFGGGTKVEIK", "group": "En_Gen", "Kd": "3.0 nM", "detected": "6/6"}
{"VL": "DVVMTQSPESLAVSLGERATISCKSSQSVLYESRDKNSVAWYQQKAGQPPKLLIYWASTRERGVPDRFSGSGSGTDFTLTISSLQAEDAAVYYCQQYHRLPLSFGGGTKVEIK", "group": "Ctrl", "Kd": "33 nM", "detected": "6/6"}
{"VL": "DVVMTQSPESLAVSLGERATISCNMRLNEGEIAQHGYAIAWYQQKAGQPPKLLIYGVDLRAAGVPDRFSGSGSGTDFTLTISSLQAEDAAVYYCQQYARLPLHFGGGTKVEIK", "group": "En_Gibbs", "Kd": "16 nM", "detected": "6/6"}
{"VL": "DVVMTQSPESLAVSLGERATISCSLQESEREMDSHEQNIAWYQQKAGQPPKLLIYDGTEHMRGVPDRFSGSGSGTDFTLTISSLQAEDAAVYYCQQYFQLPLHFGGGTKVEIK", "group": "En_Gibbs", "Kd": "15 nM", "detected": "6/6"}

The closing 2 entries, repeated:

{"VL": "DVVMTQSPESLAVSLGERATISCNMRLNEGEIAQHGYAIAWYQQKAGQPPKLLIYGVDLRAAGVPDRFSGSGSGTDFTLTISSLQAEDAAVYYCQQYARLPLHFGGGTKVEIK", "group": "En_Gibbs", "Kd": "16 nM", "detected": "6/6"}
{"VL": "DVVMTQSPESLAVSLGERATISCSLQESEREMDSHEQNIAWYQQKAGQPPKLLIYDGTEHMRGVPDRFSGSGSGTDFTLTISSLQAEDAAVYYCQQYFQLPLHFGGGTKVEIK", "group": "En_Gibbs", "Kd": "15 nM", "detected": "6/6"}